In paper PMC5646416 (Journal of clinical pharmacy and therapeutics, 2017):

Details: plasma, single oral 25 mg exemestane

17-hydroexemestane [17-HEXE]
AUC0–8 (OATP1B1 rs4149056T>C CC + CT group): 3.09 ng·h/mL | AUC0–8 (OATP1B1 rs4149056T>C TT group): 1.83 ng·h/mL

Like-named read-outs stand apart in the source and are kept apart here.
